# Values of other authors in publication PMC3767463 (Journal of the American Chemical Society, 2013).
# Settings: cited from earlier work
substance,measurement,value
kalata B1,Concentration at which cytotoxic,above 10 μM
